Data: ChEMBL document CHEMBL5506018, “Discovery and Mechanistic Studies of Dual-Target Hits for Carbonic Anhydrase IX and VEGFR-2 as Potential Agents for Solid Tumors: X-ray, In Vitro, In Vivo, and In Silico Investigations of Coumarin-Based Thiazoles” (J Med Chem, 2024)

Amino acid sequences for entries named in this document (tags omitted). A change or cut given only in a name is not applied to a line headed by its entry.
UniProt P09619, whole entry: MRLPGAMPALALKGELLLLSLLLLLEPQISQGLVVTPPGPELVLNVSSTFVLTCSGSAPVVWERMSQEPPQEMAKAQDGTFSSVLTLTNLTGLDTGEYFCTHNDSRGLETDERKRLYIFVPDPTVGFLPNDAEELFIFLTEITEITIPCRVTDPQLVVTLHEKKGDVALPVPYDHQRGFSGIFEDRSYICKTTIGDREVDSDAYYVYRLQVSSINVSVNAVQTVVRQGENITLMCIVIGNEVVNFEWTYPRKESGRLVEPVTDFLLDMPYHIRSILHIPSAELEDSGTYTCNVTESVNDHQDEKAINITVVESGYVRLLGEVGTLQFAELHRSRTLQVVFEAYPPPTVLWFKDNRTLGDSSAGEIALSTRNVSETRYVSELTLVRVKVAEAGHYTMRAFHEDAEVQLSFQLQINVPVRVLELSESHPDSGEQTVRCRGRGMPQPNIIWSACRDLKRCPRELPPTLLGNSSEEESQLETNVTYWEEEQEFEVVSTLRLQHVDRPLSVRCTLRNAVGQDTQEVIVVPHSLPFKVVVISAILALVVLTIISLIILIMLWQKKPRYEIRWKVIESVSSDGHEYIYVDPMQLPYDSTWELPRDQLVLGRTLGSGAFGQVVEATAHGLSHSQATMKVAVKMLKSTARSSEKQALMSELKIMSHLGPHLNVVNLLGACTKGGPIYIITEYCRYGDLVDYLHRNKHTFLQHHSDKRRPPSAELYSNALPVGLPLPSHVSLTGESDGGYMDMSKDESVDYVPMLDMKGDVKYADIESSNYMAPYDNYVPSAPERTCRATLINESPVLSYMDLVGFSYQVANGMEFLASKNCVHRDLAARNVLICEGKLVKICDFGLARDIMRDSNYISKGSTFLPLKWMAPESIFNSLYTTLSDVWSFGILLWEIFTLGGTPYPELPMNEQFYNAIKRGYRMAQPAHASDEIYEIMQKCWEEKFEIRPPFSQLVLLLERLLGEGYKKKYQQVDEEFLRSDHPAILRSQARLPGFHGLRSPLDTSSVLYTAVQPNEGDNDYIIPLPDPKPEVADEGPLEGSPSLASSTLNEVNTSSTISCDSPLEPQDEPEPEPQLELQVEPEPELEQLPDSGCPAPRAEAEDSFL
UniProt P10721, whole entry: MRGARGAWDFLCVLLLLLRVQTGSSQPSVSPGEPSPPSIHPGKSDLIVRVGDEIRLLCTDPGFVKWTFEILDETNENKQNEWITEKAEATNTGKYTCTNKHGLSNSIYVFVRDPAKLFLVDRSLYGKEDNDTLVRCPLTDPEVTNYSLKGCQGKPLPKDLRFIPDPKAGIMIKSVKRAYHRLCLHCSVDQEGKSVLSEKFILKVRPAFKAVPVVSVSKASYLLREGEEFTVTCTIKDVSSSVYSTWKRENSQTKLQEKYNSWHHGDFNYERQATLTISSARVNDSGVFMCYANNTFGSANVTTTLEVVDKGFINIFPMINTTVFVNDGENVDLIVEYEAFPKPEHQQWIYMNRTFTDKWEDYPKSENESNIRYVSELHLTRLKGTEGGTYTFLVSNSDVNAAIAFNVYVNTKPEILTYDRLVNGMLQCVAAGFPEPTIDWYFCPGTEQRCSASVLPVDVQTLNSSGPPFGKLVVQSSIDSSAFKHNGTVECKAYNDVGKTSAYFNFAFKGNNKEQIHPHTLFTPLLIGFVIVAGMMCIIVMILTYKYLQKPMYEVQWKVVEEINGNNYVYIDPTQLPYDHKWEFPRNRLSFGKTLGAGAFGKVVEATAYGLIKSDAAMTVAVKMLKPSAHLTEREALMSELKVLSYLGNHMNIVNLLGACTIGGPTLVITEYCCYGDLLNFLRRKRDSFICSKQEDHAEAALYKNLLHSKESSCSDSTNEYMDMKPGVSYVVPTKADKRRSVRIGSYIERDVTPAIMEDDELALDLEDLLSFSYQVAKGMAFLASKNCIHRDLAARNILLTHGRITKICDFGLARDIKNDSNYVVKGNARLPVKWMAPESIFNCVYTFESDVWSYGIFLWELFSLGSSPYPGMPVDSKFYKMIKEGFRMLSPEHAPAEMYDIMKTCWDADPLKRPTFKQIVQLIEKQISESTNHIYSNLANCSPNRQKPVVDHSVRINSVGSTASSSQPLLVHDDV
UniProt P36888, whole entry: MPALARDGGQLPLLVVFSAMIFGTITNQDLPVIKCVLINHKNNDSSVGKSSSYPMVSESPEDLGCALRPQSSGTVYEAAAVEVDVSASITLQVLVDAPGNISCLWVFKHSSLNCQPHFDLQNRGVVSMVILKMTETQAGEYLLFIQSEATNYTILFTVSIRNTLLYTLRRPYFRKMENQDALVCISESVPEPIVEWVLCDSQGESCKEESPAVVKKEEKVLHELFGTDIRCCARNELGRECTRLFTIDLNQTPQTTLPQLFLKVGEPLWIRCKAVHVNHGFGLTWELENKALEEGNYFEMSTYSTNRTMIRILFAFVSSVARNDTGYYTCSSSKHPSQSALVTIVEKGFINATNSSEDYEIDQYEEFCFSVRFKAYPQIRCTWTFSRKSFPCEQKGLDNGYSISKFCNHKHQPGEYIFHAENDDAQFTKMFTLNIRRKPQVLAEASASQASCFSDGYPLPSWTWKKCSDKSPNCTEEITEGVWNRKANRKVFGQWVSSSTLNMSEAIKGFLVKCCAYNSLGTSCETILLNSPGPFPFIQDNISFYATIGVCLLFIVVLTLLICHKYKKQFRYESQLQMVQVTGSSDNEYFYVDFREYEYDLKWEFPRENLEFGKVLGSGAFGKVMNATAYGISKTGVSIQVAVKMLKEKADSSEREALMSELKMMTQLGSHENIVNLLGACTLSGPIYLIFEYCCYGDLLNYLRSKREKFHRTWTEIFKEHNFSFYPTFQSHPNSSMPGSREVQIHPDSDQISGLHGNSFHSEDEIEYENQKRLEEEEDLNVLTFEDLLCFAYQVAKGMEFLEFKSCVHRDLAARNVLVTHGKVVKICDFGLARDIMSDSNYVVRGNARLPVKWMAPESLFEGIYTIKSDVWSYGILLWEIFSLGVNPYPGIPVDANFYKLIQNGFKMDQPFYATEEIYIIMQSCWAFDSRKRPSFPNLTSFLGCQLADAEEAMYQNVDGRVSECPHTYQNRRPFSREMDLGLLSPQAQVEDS
UniProt P07949, whole entry: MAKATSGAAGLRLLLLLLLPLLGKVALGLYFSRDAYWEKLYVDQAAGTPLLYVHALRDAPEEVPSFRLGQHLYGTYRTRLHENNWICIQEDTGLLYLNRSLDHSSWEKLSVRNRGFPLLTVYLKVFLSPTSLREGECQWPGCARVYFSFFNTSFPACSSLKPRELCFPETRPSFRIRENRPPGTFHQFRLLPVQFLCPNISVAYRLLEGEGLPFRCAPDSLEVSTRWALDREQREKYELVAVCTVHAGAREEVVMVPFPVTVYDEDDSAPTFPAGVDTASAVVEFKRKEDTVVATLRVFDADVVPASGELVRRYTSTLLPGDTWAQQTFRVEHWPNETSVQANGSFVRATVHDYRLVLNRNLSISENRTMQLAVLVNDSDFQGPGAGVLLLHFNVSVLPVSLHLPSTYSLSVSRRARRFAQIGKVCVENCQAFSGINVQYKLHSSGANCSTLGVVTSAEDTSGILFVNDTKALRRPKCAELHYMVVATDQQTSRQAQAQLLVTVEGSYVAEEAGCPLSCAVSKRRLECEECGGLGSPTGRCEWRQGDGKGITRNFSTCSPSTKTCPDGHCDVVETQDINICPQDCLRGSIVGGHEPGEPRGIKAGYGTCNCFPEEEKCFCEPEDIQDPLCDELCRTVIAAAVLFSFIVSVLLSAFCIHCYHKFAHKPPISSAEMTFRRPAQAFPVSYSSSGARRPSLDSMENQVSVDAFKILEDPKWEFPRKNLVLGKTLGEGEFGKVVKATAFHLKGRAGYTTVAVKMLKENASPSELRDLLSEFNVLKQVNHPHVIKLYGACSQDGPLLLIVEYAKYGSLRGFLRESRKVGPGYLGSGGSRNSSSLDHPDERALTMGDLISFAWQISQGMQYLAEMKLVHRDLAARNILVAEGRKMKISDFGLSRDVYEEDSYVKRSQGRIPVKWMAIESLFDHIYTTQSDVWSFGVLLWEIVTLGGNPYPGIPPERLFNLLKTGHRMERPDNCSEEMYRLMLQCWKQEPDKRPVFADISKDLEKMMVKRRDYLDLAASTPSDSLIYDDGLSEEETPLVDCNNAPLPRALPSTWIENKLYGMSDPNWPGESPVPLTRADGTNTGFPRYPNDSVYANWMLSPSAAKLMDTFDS
UniProt Q07820, whole entry: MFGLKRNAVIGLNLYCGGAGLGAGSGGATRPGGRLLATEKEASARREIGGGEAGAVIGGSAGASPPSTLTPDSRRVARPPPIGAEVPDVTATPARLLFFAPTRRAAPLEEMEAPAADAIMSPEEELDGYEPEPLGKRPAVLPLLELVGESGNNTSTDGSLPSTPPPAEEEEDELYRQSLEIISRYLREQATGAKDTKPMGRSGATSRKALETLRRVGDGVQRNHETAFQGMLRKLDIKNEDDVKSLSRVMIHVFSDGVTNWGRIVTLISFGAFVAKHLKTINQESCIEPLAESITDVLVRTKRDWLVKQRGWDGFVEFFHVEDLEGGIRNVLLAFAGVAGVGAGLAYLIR
UniProt P49841: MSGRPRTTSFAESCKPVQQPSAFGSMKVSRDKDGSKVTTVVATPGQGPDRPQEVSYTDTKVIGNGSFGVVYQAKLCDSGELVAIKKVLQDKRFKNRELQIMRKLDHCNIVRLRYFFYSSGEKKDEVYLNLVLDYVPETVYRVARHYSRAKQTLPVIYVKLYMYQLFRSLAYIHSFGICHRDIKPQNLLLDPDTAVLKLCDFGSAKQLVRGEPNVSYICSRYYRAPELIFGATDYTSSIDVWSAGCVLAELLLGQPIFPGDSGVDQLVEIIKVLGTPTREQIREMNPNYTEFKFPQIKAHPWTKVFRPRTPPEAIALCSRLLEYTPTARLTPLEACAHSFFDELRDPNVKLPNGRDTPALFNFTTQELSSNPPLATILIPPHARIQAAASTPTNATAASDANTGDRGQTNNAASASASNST
UniProt Q96GD4, whole entry: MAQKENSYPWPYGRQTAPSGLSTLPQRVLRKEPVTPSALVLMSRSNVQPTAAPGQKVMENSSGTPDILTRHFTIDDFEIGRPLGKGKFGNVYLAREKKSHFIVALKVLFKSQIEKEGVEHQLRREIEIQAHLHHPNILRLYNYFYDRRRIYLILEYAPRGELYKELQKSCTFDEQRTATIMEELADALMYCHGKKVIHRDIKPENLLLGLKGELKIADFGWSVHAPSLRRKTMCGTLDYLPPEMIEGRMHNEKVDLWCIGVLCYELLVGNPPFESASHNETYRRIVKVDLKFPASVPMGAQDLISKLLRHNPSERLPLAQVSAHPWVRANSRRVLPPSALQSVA
UniProt Q06187: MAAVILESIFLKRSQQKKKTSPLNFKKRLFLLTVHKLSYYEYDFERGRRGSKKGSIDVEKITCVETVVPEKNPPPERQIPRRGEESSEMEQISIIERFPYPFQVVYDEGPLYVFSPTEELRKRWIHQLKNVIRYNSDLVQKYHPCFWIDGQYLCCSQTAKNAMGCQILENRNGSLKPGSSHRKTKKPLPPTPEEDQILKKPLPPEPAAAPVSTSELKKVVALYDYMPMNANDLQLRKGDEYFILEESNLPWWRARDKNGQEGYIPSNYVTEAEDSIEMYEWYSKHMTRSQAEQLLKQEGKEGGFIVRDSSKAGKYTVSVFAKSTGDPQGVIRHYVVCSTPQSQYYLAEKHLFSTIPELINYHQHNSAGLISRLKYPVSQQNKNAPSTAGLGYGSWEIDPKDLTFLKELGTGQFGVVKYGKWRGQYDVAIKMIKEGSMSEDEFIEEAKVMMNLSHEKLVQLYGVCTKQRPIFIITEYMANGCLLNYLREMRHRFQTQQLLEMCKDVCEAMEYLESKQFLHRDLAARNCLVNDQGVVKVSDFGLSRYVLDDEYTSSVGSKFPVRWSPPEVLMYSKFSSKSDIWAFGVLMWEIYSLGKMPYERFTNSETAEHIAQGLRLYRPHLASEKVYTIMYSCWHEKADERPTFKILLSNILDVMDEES

What was measured:
[1] = biological target: Platelet-derived growth factor receptor beta (Homo sapiens) (UniProt P09619); assay: Inhibition of PDGFRbeta (unknown origin) assessed as remaining activity at 10 uM relative to control
[2] = biological target: Mast/stem cell growth factor receptor Kit (Homo sapiens) (UniProt P10721); assay: Inhibition of c-KIT (unknown origin) assessed as remaining activity at 10 uM relative to control
[3] = biological target: Receptor-type tyrosine-protein kinase FLT3 (Homo sapiens) (UniProt P36888); assay: Inhibition of FLT-3 (unknown origin) assessed as remaining activity at 10 uM relative to control
[4] = biological target: Proto-oncogene tyrosine-protein kinase receptor Ret (Homo sapiens) (UniProt P07949); assay: Inhibition of RET (unknown origin) assessed as remaining activity at 10 uM relative to control
[5] = biological target: Induced myeloid leukemia cell differentiation protein Mcl-1 (Homo sapiens) (UniProt Q07820); assay: Inhibition of Mcl-1 (unknown origin) assessed as remaining activity at 10 uM relative to control
[6] = biological target: RAF proto-oncogene serine/threonine-protein kinase (Homo sapiens) (UniProt P04049); assay: Inhibition of RAF (unknown origin) assessed as remaining activity at 10 uM relative to control
[7] = biological target: Glycogen synthase kinase-3 beta (Homo sapiens) (UniProt P49841); assay: Inhibition of GSK3beta (unknown origin) assessed as remaining activity at 10 uM relative to control
[8] = biological target: Aurora kinase B (Homo sapiens) (UniProt Q96GD4); assay: Inhibition of Aurora B (unknown origin) assessed as remaining activity at 10 uM relative to control
[9] = biological target: T1, Tyrosine-protein kinase JAK3 (Homo sapiens) (UniProt P52333); assay: Inhibition of JAK3 (unknown origin) assessed as remaining activity at 10 uM relative to control
T1 sequence (whole entry): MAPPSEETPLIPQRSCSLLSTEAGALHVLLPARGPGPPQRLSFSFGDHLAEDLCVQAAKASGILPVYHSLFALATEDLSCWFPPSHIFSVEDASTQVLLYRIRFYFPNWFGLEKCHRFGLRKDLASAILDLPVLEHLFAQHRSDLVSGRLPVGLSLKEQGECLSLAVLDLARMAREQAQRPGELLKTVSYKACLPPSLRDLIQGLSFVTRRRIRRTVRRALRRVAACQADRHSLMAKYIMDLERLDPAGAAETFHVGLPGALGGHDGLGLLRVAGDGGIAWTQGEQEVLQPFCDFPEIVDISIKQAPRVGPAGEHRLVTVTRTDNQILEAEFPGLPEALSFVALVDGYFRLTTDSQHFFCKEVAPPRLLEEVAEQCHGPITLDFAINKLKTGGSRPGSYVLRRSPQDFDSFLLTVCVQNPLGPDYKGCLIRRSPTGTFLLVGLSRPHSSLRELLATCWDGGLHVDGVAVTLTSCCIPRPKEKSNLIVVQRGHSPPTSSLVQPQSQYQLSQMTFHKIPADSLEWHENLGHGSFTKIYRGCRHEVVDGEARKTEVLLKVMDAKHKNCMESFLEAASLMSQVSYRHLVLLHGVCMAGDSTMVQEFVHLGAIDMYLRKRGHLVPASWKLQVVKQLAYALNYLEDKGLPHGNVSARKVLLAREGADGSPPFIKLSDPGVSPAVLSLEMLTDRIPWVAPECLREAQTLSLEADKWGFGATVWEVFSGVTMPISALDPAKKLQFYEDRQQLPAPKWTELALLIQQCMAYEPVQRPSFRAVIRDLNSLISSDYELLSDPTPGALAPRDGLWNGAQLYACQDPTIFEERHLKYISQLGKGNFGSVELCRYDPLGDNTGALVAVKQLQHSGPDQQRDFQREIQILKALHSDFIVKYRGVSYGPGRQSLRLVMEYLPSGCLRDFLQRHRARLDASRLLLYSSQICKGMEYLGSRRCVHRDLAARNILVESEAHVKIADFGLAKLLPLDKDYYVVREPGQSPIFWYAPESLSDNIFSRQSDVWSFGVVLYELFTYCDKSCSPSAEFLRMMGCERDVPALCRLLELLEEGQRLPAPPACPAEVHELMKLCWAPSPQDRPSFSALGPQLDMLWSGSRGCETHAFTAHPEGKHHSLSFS

[10] = biological target: Tyrosine-protein kinase BTK (Homo sapiens) (UniProt Q06187); assay: Inhibition of BTK (unknown origin) assessed as remaining activity at 10 uM relative to control

Activity [1]: 84%
Activity [2]: 95%
Activity [3]: 100%
Activity [4]: 97%
Activity [5]: 85%
Activity [6]: 76%
Activity [7]: 93%
Activity [8]: 102%
Activity [9]: 99%
Activity [10]: 87%
SMILES: CCOc1cccc2cc(/C(C)=N/Nc3nc(-c4ccc(F)cc4)cs3)c(=O)oc12
